pIC50: −log10 of the molar value.
Biological target: T1, Histone deacetylase HD2 (Zea mays, UniProt Q94F81)
T1 sequence (Q94F81 whole entry): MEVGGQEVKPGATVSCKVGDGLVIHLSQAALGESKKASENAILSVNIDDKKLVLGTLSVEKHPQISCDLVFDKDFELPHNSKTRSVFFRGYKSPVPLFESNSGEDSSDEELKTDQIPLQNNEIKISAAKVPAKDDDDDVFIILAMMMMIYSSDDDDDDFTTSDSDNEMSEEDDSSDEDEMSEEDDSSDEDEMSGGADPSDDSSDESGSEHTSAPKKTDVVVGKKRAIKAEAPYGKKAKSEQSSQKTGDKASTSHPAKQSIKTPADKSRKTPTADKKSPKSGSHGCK
Assay: Inhibition of maize Histone deacetylase 2 (HD-2) activity

pIC50: 8.52
Structure (SMILES): CC(/C=C/C(=O)NO)=C\[C@@H](C)C(=O)c1ccc(N(C)C)cc1 [TRICHOSTATIN]

Reference: ChEMBL document CHEMBL1132469, “Amide analogues of trichostatin A as inhibitors of histone deacetylase and inducers of terminal cell differentiation” (J Med Chem, 1999)
